Source: ChEMBL document CHEMBL3596144, “New Indole Tubulin Assembly Inhibitors Cause Stable Arrest of Mitotic Progression, Enhanced Stimulation of Natural Killer Cell Cytotoxic Activity, and Repression of Hedgehog-Dependent Cancer” (J Med Chem, 2015)

Test: cells
Conditions: Homo sapiens, NCI/ADR-RES, 48 h

IC50: 6 µM
Structure (SMILES): CC(=O)O[C@H]1C(=O)[C@@]2(C)[C@H]([C@H](OC(=O)c3ccccc3)[C@]3(O)C[C@H](OC(=O)[C@H](O)[C@@H](NC(=O)c4ccccc4)c4ccccc4)C(C)=C1C3(C)C)[C@]1(OC(C)=O)CO[C@@H]1C[C@@H]2O [PACLITAXEL]
